Binding of CDR-mutated scFvs to a peptide of the spike HR2 region

All variants were tested on one target, the spike HR2 peptide PDVDLGDISGINAS (SARS-CoV-2).

Each scFv is VH, the linker GGGGSGGGGSGGGGS, VL, as in the parent Ab-95, and differs from it in the CDRs of the light chain only.
VH: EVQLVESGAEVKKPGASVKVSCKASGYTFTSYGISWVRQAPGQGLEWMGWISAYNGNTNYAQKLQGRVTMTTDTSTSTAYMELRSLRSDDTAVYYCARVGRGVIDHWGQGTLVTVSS
VL: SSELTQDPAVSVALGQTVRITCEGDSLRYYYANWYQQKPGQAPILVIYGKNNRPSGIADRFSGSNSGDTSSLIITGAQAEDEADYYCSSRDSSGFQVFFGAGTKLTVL

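The parent was found by panning a naive human phage display library on the peptide. The library (AAYL52) carries one to three amino acid substitutions per variant, with no insertions or deletions. Affinity was read by AlphaSeq, a pooled yeast mating assay with surface-displayed partners. After mating in shaken culture at 30 °C for 16 h, diploids were selected and their barcode pairs sequenced. Each replicate has its own calibration line, from reference interactions of the BCL2 family. The assay was run in three technical replicates.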

Changes read parent residue, position, new residue, counted from the first residue of the VL shown.
Affinities are written as log10 Kd with Kd in nM; a lower number is a better binder.
Averages over replicates are reported, and they cover detected replicates only.
"no signal" means that the variant was in the library but no mating with the target was seen in any replicate; the authors take this as a sign of poor binding, and no number exists.
Entries are sorted by rising average, undetected variants last.
Three control strains display no target. For library AAYL52, 28% of the pairings with them gave a signal, with a median of 3.91 and one signal in twenty below 2.90, so weak values seen in few replicates may be background.
Parent in this assay: reference entry 2.31, copy in this library 2.25.

changes,"log10 Kd (nM), mean",seen in
Y30S G94V,1.11,3 of 3
Y30K N52S S55C,1.13,3 of 3
Y30Q Y31M F98T,1.46,3 of 3
Y29L Y30W V97N,1.88,3 of 3
E23N S89T,1.92,3 of 3
S26A S55E S93I,2.06,3 of 3
E23Q Q96L V97W,2.10,3 of 3
Y30V S55G F98K,2.40,3 of 3
S26W Y30H P54L,2.48,3 of 3
L27I S55E D91G,2.52,3 of 3
L27A R28K F98A,2.80,3 of 3
A32F K50F S88N,3.12,2 of 3
D25T Y31H N52R,3.17,3 of 3
D25M L27E G49S,3.19,1 of 3
Y30I R90Y S93I,3.19,2 of 3
G24R N33W G94K,3.29,1 of 3
G24Y S89T Q96R,3.40,2 of 3
G24Y Y30W,3.44,3 of 3
D25R R53L R90A,3.55,2 of 3
G24Q R28C F95T,3.55,2 of 3
L27Q R53Q,3.65,1 of 3
N51S S88D F98G,3.65,2 of 3
N52K P54L S93W,3.79,2 of 3
G49C N51I S89G,3.89,2 of 3
G49H F95D Q96E,3.97,3 of 3
S26N L27E G49P,4.02,2 of 3
A32T K50G F95V,4.08,3 of 3
G94F Q96G F98Y,4.09,2 of 3
G24M S93F F95S,4.11,3 of 3
L27F G49Y P54F,4.16,1 of 3
N51W S88L S93E,4.18,2 of 3
L27E P54W,4.19,3 of 3
N33P P54F F98Y,4.27,1 of 3
L27M R53K S93V,4.28,1 of 3
L27M Y29N N33L,4.40,2 of 3
D91W V97G,4.51,1 of 3
N52H R53E F98V,4.70,1 of 3
A32I P54W F98K,4.83,1 of 3
Y31F S89M Q96E,5.12,2 of 3
G24C S88W,no signal,0 of 3
R28N N33D F95D,no signal,0 of 3
R53S R90I D91M,no signal,0 of 3
G49T P54R R90I,no signal,0 of 3
N33I R90M Q96T,no signal,0 of 3
Y31V G49D P54E,no signal,0 of 3

The first 3 entries again:

changes,"log10 Kd (nM), mean",seen in
Y30S G94V,1.11,3 of 3
Y30K N52S S55C,1.13,3 of 3
Y30Q Y31M F98T,1.46,3 of 3

Data: MIT Lincoln Laboratory AlphaSeq set, Engelhart et al. 2022, doi:10.1038/s41597-022-01779-4, as distributed in FLAb.